# Reference: BindingDB's records for patent US9540388 (Janssen Pharmaceutica NV, 2017)
# The chains behind the UniProt entries cited, without tags or fusion partners. Where a name states a change or a piece, a line headed by the entry shows the natural chain unless it says otherwise.
# UniProt Q99572: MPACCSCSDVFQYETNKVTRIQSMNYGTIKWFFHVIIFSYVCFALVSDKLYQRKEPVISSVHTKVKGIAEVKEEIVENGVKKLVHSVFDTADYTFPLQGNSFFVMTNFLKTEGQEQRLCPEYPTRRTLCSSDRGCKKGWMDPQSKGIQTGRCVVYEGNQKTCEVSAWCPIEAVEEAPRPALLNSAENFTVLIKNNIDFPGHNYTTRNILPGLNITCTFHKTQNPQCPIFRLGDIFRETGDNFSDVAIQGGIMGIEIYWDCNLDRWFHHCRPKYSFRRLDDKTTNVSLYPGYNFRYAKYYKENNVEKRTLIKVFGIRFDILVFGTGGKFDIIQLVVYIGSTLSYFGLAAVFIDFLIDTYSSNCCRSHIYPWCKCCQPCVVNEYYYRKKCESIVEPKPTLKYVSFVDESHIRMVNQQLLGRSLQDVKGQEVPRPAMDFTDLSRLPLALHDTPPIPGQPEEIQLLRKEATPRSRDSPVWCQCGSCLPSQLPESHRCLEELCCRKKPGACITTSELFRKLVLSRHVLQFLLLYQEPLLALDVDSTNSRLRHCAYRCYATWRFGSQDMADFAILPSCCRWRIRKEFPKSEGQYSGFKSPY
# Assays:
# P2X purinoceptor 7 [1] = biological target: T1, P2X purinoceptor 7 (Rattus norvegicus, UniProt Q64663); assay: Radioligand Binding Assay
# T1 sequence (Q64663 whole entry): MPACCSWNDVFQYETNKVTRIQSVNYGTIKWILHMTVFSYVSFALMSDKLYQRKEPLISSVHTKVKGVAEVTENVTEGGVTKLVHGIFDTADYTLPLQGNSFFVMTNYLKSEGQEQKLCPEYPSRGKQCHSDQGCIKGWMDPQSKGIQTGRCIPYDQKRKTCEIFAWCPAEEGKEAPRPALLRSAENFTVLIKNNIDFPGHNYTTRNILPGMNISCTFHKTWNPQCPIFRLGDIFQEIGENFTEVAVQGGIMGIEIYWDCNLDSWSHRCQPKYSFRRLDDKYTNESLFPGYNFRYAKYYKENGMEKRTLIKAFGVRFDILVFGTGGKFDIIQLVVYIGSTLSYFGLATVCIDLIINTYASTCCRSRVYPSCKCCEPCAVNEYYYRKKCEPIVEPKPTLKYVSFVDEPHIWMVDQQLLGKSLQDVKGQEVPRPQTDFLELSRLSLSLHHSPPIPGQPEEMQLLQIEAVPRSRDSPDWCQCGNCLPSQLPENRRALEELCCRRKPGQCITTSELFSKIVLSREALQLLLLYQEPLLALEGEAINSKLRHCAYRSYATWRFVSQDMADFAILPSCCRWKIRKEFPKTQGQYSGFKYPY
# Procedure: (§1) human or rat P2X7-1321N1 cells were collected and frozen @−80° C. On the day of the experiment, cell membrane preparations were made according to standard published methods. The total assay volume was 100 μl:10 μl compound (10×)+(b) 40 μl tracer (2.5×)+50 μl membrane (2×). The tracer used for the assay was tritiated A-804598. The compound can be prepared as described in the literature. […] The assay was terminated by filtration (GF/B filters pre-soaked with 0.3% PEI) and washed with washing buffer (Tris-HCl 50 mM). The IC50 generated in the binding assay was corrected for tracer concentration and affinity of the tracer to derive at the affinity (Ki) of the test compounds.
# P2X purinoceptor 7 [2] = biological target: P2X purinoceptor 7 (Homo sapiens, UniProt Q99572); assay: Radioligand Binding Assay
# Procedure: as §1
# P2X purinoceptor 7 [3] = biological target: T1, P2X purinoceptor 7; assay: Ca2+ Flux Assay; settings: pH 7.4
# Procedure: 1321N1 cells expressing the recombinant human or rat P2X7 channel was cultured in HyQ DME/(HyClone/Dulbecco's Modified Eagle Medium) high glucose supplemented with 10% Fetal Bovine Serum (FBS) and appropriate selection marker. Cells were seeded at a density of 25000 cells/well (96-well clear bottom black walled plates) in 100 μl volume/well. On the day of the experiment, cell plates were washed with assay buffer, containing (in mM): 130 NaCl, 2 KCl, 1 CaCl2, 1 MgCl2, 10 HEPES, 5 glucose; pH 7.40 and 300 mOs. After the wash, cells were loaded with the Calcium-4 dye (Molecular Device) and incubated in the dark for 60 minutes. Test compounds were prepared at 250× the test concentration in neat DMSO. Intermediate 96-well compound plates were prepared by transferring 1.2 μL of the compound into 300 μL of assay buffer. A further 3× dilution occurred when transferring 50 μL/well of the compound plate to 100 μL/well in the cell plate. Cells were incubated with test compounds and dye for 30 minutes. Calcium dye fluorescence was monitored in FLIPR as the cells were challenged by adding 50 μL/well of BzATP (final concentration is 250 μM BzATP (human and rat)).
Structure (SMILES),IC50 (P2X purinoceptor 7 [1]),IC50 (P2X purinoceptor 7 [2]),Ki (P2X purinoceptor 7 [3])
"O=C(c1cccc(C(F)(F)F)c1Cl)N1[C@@H]2CCC[C@H]1c1nnc(-c3ncccn3)n1C2 (single isomer, unassigned) [US9540388, 3]",> 10 µM,> 10 µM,–
"COc1ccnc(-c2nnc3n2C[C@H]2CCC[C@@H]3N2C(=O)c2cccc(C(F)(F)F)c2Cl)c1 (single isomer, unassigned) [US9540388, 27]",–,–,0.004 µM
